# Results as given in patent publication US20230219962A1, “PYRAZOLO[4,3-d]PYRIMIDINE DERIVATIVES AND METHODS OF USE THEREOF FOR THE TREATMENT OF CELLULAR PROLIFERATIVE DISORDERS” (Merck Sharp & Dohme LLC, priority 2020, published 2023).
# By UniProt entry, the sequences of proteins in these tests, tags left out. Residues count along the entry.
# UniProt Q9NYK1, 27-1049 limits assumed: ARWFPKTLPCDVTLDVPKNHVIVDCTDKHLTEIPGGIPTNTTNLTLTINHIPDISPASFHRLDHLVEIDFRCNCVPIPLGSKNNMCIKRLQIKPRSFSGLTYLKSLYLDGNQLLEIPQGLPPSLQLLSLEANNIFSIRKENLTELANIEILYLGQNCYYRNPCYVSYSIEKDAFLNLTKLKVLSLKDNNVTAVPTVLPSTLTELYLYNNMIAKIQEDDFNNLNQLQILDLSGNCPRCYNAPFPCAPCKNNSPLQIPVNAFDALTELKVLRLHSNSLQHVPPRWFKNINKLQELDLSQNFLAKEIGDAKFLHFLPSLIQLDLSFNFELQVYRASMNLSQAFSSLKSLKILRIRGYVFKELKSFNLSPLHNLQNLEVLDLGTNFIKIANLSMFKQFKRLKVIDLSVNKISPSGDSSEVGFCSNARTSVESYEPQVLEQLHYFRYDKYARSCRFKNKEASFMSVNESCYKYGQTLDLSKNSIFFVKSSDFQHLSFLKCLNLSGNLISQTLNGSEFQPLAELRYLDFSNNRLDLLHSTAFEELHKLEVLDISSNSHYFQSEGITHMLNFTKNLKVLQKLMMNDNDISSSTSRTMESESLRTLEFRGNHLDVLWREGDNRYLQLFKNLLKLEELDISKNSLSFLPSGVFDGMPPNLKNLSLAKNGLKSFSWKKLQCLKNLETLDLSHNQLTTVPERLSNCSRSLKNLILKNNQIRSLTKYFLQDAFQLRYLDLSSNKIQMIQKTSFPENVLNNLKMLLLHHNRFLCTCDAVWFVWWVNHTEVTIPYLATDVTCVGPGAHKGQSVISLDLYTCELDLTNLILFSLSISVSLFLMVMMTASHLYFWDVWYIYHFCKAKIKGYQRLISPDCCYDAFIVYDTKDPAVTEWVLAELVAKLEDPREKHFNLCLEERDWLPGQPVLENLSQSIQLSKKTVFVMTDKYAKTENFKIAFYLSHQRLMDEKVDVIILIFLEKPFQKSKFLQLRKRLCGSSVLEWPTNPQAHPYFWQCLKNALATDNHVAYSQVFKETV
# UniProt Q9NR97, 27-1041 limits assumed: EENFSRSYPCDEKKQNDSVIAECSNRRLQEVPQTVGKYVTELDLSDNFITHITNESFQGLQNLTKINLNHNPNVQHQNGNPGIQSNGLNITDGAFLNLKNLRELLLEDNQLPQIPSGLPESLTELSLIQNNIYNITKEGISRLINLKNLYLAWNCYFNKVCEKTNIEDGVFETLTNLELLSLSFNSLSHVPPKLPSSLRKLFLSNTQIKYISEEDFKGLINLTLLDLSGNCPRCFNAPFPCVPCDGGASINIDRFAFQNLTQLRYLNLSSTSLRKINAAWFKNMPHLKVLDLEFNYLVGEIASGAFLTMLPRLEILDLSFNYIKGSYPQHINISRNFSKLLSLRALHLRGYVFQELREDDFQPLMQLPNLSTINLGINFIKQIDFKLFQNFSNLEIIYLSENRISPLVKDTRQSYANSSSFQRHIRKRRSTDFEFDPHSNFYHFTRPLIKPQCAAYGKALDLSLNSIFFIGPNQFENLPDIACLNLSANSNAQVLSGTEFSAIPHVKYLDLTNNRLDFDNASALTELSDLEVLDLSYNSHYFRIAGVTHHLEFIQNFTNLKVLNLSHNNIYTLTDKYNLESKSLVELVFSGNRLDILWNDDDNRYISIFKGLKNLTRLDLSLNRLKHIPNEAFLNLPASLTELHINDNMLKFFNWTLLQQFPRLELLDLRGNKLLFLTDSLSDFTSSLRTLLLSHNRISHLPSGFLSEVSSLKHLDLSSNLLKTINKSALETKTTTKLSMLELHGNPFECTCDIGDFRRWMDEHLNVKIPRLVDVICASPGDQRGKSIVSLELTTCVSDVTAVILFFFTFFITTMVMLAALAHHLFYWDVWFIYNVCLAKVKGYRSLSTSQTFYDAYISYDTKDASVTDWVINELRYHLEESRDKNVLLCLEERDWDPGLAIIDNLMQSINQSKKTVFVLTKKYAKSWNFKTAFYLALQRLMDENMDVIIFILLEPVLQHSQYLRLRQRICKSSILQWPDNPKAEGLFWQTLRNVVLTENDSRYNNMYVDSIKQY
# Like-named read-outs stand apart in the source and are kept apart here.
# Tests used:
# hTLR7 = hTLR7 (Homo sapiens, UniProt Q9NYK1); test: Human TLR7 Reporter Assay; conditions: read-out: hTLR7 EC50, HEK-Blue hTLR7 cells, 16 hours, normalized to CL097 (6 μM) and DMSO
# Protocol: (§1) HEK-Blue™ hTLR7 cells (Invivogen, San Diego, Calif.) were maintained at 37° C./5% CO2/90% relative humidity in Dulbecco's Modified Eagle's Medium with 10% fetal bovine serum, 100 units/mL penicillin, 100 μg/mL streptomycin, 100 μg/mL normocin, 10 μg/mL blasticidin, and 100 μg/mL zeocin. HEK-Blue™ hTLR7 cells were maintained at 10-90% confluence and used before passage 20. For this assay, test compounds were dissolved in DMSO, and 10-point serial 3-fold dilution series in DMSO were prepared in Echo Qualified 384-well Polypropylene Microplates (Labcyte, San Jose, Calif.). Assay plates (384-well flat, clear bottom, black polystyrene TC-treated microtiter plates; Corning, Corning, N.Y.) were prepared by dispensing 150 nL of test compounds, high control (CL097; Invivogen, San Diego, Calif.), and low control (DMSO) by ECHO acoustic dispenser (Labcyte, San Jose Calif.) followed by addition of 5 μL of HEK-Blue™ Detection assay media (Invivogen, San Diego, Calif.). HEK-Blue™ hTLR7 cells in HEK-Blue™ Detection assay media (20,000 cells per well in 45 μL of media) were added to the assay plate and incubated for 16 hours at 37° C./5% CO2/90% relative humidity. For detection, assay plates were removed from the incubator, allowed to cool to ambient temperature, centrifuged at 200×g for 1 minutes, and read with an EnSpire Multimode Plate Reader (Perkin Elmer, Waltham, Mass.) for absorbance at 620 nm. Test compound effects were normalized to the window defined by the controls, CL097 (6 μM), and DMSO. Calculated % effects were fit using a 4-parameter algorithm, and EC50 was reported.
# hTLR8 = hTLR8 (Homo sapiens, UniProt Q9NR97); test: Human TLR8 Reporter Assay; conditions: read-out: hTLR8 EC50, HEK-Blue hTLR8 cells, 16 hours, normalized to tl8-506 (1 μM) and DMSO
# Protocol: as §1, with “hTLR8” for “hTLR7”, “(tl8-506;” for “(CL097;”, “tl8-506 (1” for “CL097 (6”
SMILES,EC50 (hTLR7),EC50 (hTLR8),EC50 (hTLR7; tested form: TFA),EC50 (hTLR8; tested form: TFA),other results
CCCCNc1nc(N)nc2cn(Cc3cc(CN4CCNCC4)ccc3OC)nc12,–,–,1940 nM,3080 nM,–
"CCCCNc1nc(N)nc2cn(Cc3c(OC)cc(CC(C)N)cc3OC)nc12 (single isomer, unassigned)",–,–,–,–,EC50 (hTLR7; tested form: trifluoroacetate): 531 nM; EC50 (hTLR8; tested form: trifluoroacetate): 311 nM
CCCCNc1nc(N)nc2cn(Cc3ccc(C(C)N)cc3OC)nc12 (stereo not shown) [Compound 167],–,–,223 nM,231 nM,–

# Second part, led by results:
EC50 (hTLR7),EC50 (hTLR8),SMILES,EC50 (hTLR7; tested form: TFA),EC50 (hTLR8; tested form: TFA),other results
54.2 nM,3830 nM,"CCCC(CCO)Nc1nc(N)nc2cn(Cc3ccccc3OC)nc12 (single isomer, unassigned) [Compound 14]",–,–,–
291 nM,> 29900 nM,"CCCC(CCO)Nc1nc(N)nc2cn(Cc3ccccc3OC)nc12 (single isomer, unassigned) [Compound 15]",–,–,–
